For one compound, Ki results are on record in BindingDB's records for doi:10.1021/acs.jmedchem.8b01327 (2019).

Sequences of proteins named here, by UniProt entry; tags and fusion partners are left off.
UniProt P33535, whole entry: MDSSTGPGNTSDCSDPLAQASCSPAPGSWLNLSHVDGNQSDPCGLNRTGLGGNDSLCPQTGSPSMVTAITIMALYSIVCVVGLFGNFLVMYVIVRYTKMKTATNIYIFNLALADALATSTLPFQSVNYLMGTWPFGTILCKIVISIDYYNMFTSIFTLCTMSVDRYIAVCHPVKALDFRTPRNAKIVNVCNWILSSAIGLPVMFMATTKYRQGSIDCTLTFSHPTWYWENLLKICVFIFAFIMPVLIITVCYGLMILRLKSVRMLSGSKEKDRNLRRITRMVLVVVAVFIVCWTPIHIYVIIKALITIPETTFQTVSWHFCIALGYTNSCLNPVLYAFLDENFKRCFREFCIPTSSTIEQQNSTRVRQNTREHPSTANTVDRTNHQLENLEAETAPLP

The assay concerns the target Mu-type opioid receptor (Rattus norvegicus, UniProt P33535). Nature of the assay: Displacement of [3H]DAMGO from mu opioid receptor in rat brain membranes incubated for 45 mins by liquid scintillation counting method. Put shortly:
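Rat brain membranes (cerebella removed; 0.3–0.5 mg protein) in 50 mM Tris-HCl, pH 7.4, were incubated 45 min at 35 °C with 1 nM [3H]DAMGO (MOR) or 0.5 nM [3H][Ile5,6]deltorphin II (DOR) plus varied test concentrations. Nonspecific binding was set with 10 μM naloxone. Samples were GF/C filtered, washed and scintillation counted. Ki was obtained by Cheng–Prusoff; duplicates, 3–4 experiments.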
Background: Loss of bound radioactivity is the signal in a displacement assay; it reports binding, not function.

Each structure is given as a SMILES string.

A word on the Ki: it is the dissociation constant of the complex between target and ligand, obtained from inhibition or displacement. Higher therefore signals a looser hold on the target. Regarding `CN1CC[C@]23c4c5ccc(O)c4O[C@H]2[C@H](NCC(=O)O)CC[C@@]3(O)[C@H]1C5`, the Ki worked out at 0.83 nM. That is a sub-nanomolar value.
